# From article PMC3285104
# Sequences of proteins named here, by UniProt entry; tags and fusion partners are left off. Residues count along the entry.
# UniProt P62871, whole entry, chain 1 of 2: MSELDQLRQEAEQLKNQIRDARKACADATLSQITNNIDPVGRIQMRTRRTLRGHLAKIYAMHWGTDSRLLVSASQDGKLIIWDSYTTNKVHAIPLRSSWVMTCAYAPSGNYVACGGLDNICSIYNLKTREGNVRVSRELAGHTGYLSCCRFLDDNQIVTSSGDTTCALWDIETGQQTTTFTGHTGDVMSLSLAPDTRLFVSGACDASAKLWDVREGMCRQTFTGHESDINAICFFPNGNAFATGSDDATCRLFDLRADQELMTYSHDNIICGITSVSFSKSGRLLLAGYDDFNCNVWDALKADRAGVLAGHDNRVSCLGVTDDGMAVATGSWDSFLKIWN
# UniProt P60880, whole entry: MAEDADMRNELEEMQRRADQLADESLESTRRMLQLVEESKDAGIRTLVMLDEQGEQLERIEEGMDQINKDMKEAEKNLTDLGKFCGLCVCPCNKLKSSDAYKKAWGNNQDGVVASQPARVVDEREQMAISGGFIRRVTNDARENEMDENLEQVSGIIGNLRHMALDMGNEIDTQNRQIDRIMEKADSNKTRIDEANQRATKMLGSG
# binary t-SNARE complex (SNAP25 with the H3 domain of syntaxin 1A), UniProt P32851, 191-265: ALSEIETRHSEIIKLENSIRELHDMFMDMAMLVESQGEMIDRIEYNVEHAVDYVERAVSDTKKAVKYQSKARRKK
# Target: Gβ1γ1 (bovine (endogenous in retina)) (UniProt P62871)
# Assay: resonant waveguide grating biosensor
substance,measurement,value
binary t-SNARE complex (SNAP25 with the H3 domain of syntaxin 1A) (from UniProt P60880 1-206; P32851 191-265),"waveshift (2 μM t-SNARE, without compound)",265 pm
